Our source for the Ki values is US8765820B2, “Tranylcypromine derivatives as inhibitors of histone demethylases LSD1 and/or LSD2” (Universita Degli Studi di Roma “La Sapienza”, priority 2010, dated 2014).

Chains of the proteins cited; added tags and fusions are not shown.
UniProt P27338, whole entry: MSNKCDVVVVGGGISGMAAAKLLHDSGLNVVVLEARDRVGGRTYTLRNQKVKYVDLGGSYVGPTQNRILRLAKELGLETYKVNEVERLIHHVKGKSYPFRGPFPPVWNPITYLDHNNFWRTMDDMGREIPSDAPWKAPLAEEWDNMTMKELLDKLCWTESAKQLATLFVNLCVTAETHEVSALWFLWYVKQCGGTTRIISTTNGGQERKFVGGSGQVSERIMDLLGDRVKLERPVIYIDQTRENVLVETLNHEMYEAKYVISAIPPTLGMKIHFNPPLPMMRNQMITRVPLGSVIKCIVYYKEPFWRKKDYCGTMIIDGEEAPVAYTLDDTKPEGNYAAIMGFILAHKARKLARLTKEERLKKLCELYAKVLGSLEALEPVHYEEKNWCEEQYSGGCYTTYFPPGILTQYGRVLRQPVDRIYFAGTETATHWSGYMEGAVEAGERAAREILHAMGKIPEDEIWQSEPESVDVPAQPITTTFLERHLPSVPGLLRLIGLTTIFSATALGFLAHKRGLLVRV

The assay deals with Human recombinant MAO B (Homo sapiens (Human), UniProt P27338). Nature of the assay: MAO B inhibition, peroxidase-coupled assay with benzylamine as substrate. Format: biochemical. The following applies: 25° C., pH 7.5; no inhibition = no detectable inhibition at inhibitor saturated solutions.

Molecules are shown by their SMILES.

Broadly, the Ki is the dissociation constant of the complex between target and ligand, obtained from inhibition or displacement. `N[C@@H]1C[C@H]1c1ccc(NC(=O)c2ccccc2)cc1` (relative stereo): the Ki is 3.5 µM.
